This assay addresses HDAC8 enzyme. Description: In vitro HDAC assay (BIOMOL fluorescent-based HDAC activity assay), HDAC8. In kind it is biochemical, human. Conditions: Table 3.

One may read the IC50 as the midpoint of a concentration-inhibition curve. A lower IC50 goes with inhibition by little substance.

As to `O=C(/C=C/c1ccc2c(c1)nc(CCc1ccccc1)n2CCc1ccccc1)NO` [Compound 26, N-Hydroxy-3-(1,2-Diphenethyl-1H-benzimidazol-5-yl]-acylamide], the half-inhibitory concentration (IC50) is 1000 nM.

For the origin of these results see patent EP1673349B1, “BENZIMIDAZOLE DERIVATIVES: PREPARATION AND PHARMACEUTICAL APPLICATIONS” (priority 2003, dated 2005).
